From ChEMBL document CHEMBL1145019, “The power of visual imagery in drug design. Isopavines as a new class of morphinomimetics and their human opioid receptor binding activity” (J Med Chem, 2003) come the findings set out here.

Sequences of proteins named here, by UniProt entry; tags and fusion partners are left off.
UniProt P35372, whole entry: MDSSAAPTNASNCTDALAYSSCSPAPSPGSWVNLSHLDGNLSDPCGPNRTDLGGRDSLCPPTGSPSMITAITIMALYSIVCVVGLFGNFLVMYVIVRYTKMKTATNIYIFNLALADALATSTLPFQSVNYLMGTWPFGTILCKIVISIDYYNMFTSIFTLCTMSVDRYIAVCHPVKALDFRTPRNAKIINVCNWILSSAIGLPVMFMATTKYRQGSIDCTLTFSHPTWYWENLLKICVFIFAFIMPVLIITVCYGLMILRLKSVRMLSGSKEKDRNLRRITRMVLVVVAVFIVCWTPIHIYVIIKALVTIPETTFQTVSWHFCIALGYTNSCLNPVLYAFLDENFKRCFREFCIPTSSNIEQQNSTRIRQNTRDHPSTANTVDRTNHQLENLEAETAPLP

In this assay the target is Mu-type opioid receptor (Homo sapiens, UniProt P35372). Put plainly: biochemical. Type of assay: cell-based, HEK293.

Consider `CN1CC[C@]23CCCC[C@H]2[C@H]1Cc1ccc(O)cc13` [LEVORPHANOL], for which it took 0.13 nM to reach half-maximal inhibition (IC50).
